The target in assay [1] is T1, Protein arginine N-methyltransferase 6 (Homo sapiens, UniProt Q96LA8).
Assay [2] has as its target T1, Protein arginine N-methyltransferase 6. The source holds these as a separate data set.
Assay [3] concerns the target Serine/threonine-protein kinase B-raf (Homo sapiens, UniProt P15056).

By UniProt entry, the sequences of proteins in these tests, tags left out.
UniProt Q96LA8, whole entry: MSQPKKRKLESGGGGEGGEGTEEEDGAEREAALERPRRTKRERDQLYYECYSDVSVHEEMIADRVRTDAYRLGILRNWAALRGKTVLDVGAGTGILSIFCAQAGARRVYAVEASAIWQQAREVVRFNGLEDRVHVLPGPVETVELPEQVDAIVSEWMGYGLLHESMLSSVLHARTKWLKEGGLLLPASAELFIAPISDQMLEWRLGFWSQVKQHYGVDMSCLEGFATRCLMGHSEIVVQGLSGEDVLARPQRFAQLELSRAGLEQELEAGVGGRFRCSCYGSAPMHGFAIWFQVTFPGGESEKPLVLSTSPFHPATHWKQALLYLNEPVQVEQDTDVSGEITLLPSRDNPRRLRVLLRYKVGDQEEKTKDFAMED
UniProt P15056, whole entry: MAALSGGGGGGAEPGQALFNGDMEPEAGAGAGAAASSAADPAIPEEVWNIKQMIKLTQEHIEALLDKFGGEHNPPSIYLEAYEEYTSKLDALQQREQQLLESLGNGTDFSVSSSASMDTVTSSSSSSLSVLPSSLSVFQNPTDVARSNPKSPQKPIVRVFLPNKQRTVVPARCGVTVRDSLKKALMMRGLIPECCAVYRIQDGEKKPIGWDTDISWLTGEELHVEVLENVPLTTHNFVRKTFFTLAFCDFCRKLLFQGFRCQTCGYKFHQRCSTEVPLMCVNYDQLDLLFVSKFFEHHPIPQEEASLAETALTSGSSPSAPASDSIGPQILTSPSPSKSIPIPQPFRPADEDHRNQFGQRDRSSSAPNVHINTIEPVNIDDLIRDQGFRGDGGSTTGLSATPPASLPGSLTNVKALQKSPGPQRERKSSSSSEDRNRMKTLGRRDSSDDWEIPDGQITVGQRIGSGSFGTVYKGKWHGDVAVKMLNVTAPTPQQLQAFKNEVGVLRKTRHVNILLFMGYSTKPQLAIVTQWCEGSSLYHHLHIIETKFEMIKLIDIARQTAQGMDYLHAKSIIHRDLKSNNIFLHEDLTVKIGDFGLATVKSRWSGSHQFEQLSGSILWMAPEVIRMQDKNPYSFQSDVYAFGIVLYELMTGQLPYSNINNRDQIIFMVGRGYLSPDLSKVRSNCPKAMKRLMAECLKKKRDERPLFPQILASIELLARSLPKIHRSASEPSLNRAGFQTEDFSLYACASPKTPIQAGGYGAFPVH

Molecules are shown by their SMILES.

By IC50 is commonly meant the concentration that inhibits the measured activity by half. Lower therefore signals greater potency in that assay. Consider `Cc1cc(C)cc([C@H]2c3cc(C)ccc3NC(=O)CN2C(=O)c2ccc(Br)s2)c1`, for which the IC50 in assay [1] and in assay [2] was more than 10 µM each time.

In turn, `CN(C)CCOc1ccc(-c2nc(-c3ccncc3)c(-c3ccc4c(c3)CC/C4=N\O)[nH]2)cc1` [SB590885] came in with an IC50 in assay [3] of more than 13 µM.

(Values after ChEMBL document CHEMBL5444388, “Affinity Phenotypic Cellular Literature for EUbOPEN Chemogenomic Library” (2024).)
